Like-named read-outs stand apart in the source and are kept apart here.
Molecular target: T1, turkey P2Y1 (Meleagris gallopavo, UniProt P49652)
T1 construct: expressed in transfected cells
Test: Intracellular calcium measurement ([Ca2+]i, fura-2) in 1321N1 astrocytoma cells
Format: cell-based
Protocol: Human 1321N1 astrocytoma cells stably expressing the turkey P2Y1, human P2Y2, human P2Y4 or rat P2Y6 were grown in Dulbecco's modified Eagle's medium containing 5% (v/v) fetal bovine serum, 100 units/ml penicillin, 100 μg/ml streptomycin and 500 μg/ml Geneticin (G-418, Life Technologies, Inc). Changes in the intracellular free calcium concentration, [Ca^2+]i were detected by dual-excitation spectrofluorometric analysis of cell suspensions loaded with fura-2, as previously described (Garrad et al., 1998; Grynkiewicz et al., 1985). Cells were assayed in 10 mM Hepes-buffered saline (pH 7.4) containing 1 mM CaCl2 and 1 mM MgCl2. The cells were pelleted in a microfuge and resuspended in 2 ml of buffer. Concentration-response data were analyzed with the Prism curve fitting program (GraphPAD Software, San Diego, Calif.). Three experiments were conducted on separate days for each P2Y receptor subtype.
The activities of compounds 2, 4B, 17, 18, 19A, 21 (isomers A and B) were examined at the G protein-coupled P2YRs, P2Y1, P2Y2, P2Y4 and P2Y6 expressed in human 1321N1 astrocytoma cells, based on intracellular calcium measurements, as described in Experimental above. In particular, the activity of compound 2, 4B and 19 was examined at P2Y1R, P2Y2R, P2Y4R and P2Y6R, and the activity of compounds 17, 18 and 21 was examined at P2Y1R only. The experiments were conducted by Prof. […]

Chains of the proteins cited; added tags and fusions are not shown. Lines headed by an entry give the natural chain unless they say otherwise; changes in a name come on top.
UniProt P49652: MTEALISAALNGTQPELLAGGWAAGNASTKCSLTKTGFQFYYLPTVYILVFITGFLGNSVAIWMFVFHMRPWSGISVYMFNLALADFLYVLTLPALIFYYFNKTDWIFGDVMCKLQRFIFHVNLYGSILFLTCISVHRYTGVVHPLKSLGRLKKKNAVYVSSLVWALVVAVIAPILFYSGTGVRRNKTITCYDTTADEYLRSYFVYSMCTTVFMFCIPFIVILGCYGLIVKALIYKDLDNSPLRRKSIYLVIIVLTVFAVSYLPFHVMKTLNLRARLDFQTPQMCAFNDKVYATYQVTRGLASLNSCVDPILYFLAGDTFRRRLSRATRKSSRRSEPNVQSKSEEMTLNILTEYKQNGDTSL

## CSc1nc(N)c2ncn([C@@H]3O[C@H](COP(=O)(O)OP(=O)(O)O)[C@@H](O)[C@H]3O)c2n1 [Compound 2-MeS-ADP, 2-MeS-ADP, reference compound]
Human 1321N1 astrocytoma cells expressing turkey P2Y1, read-out: Compound-induced activation of [Ca2+] EC50, P2Y1
  EC50: 4 nM
Printed in nM in text, read-out: EC50 at P2Y1R
  EC50: 4 nM
